The target in one assay is recombinant human QC (Homo sapiens, UniProt Q16769). Put plainly: Assay 4 - QC potency, mass spectrometry-based enzymatic potency assay. To be noted: read-out: QC Pot. Assay No. 4. The protocol: (§1) EC50's of test compounds were determined by incubating 11-point two-fold dilutions of test compound in 20 μL volumes in the presence of 7.5 nM isoQC and 10 μM H-Gln-AMC using 50 mM Tris-HCl pH 8.0 as assay buffer for 2 hours at room temperature before stopping the reaction by the addition of 2 volumes of methanol. Both the substrate and the product of this reaction were read out using an Agilent RapidFire microfluidic solid phase sample extraction system coupled to an AB Sciex API 4000 triple quadrupole mass spectrometer, in negative ion mode, at m/z of 301.9 and 284.9 respectively. The actual readout was defined as P/(S+P), where P is the product signal area and S the substrate signal area. EC50's were calculated by four parameter sigmoidal model fitting.
EC50's of test compounds were determined in the same way as described in Assay 2 above, except that N-terminally His6-tagged recombinant human QC (R&D Systems) was used instead of isoQC.

Sequences of proteins named here, by UniProt entry; tags and fusion partners are left off. Residues count along the entry.
UniProt Q16769, 29-361 limits assumed: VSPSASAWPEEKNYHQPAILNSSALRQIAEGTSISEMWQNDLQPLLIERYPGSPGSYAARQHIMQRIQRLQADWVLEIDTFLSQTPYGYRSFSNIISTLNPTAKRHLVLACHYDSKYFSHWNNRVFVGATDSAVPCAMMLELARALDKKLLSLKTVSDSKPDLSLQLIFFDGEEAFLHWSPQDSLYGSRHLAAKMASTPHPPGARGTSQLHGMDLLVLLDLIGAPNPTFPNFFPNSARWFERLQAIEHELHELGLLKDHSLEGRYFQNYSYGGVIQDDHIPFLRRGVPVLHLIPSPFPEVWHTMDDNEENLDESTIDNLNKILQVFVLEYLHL
UniProt Q9NXS2, 53-382 limits assumed: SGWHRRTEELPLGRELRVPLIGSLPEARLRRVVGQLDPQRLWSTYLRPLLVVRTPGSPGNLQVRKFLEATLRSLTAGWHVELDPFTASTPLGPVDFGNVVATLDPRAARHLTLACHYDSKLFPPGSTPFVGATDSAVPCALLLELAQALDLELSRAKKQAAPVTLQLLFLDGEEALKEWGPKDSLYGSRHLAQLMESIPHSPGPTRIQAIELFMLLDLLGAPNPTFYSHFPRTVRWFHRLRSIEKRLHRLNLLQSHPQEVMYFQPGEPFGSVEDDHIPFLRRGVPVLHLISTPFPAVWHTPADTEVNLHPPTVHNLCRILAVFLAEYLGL

The target in assay [1] is T1, human isoQC (S53-L382) (Homo sapiens, UniProt Q9NXS2). Put plainly: Assay 1 - isoQC inhibition, fluorescent enzymatic assay (single concentration). As to conditions: isoQC inhibition at 250 nM test compound. Here is the method: Initially, isoQC inhibitory activity was measured at a single concentration in a fluorescent-based assay (Assay 1 below). In order to establish the inhibitory activity more quantitatively, IC50 values were obtained using a mass spectrometry-based assay where pyroglutamylation by either isoQC or QC was measured (Assays 2 and 4, respectively, below). Alternatively, IC50 values for isoQC or QC were obtained using a fluorescence-based assay (Assays 3 and 5 respectively, below).
(§2) The Golgi luminal, enzymatically active region of human isoQC (S53-L382; see, e.g., Huang et al., 2011) was obtained by expression in E. coli of an N-terminally GST-Enterokinase and C-terminally 6×His tagged construct in the pET41(+) vector and subsequent purification using talon beads and GST beads, enterokinase digestion and further purification with a final formulation in 25 mM Tris pH 8.0/150 mM NaCl/1 mM TCEP. Absence of pyroglutamylating activity in an enzymatic dead variant that was cloned, expressed, and purified in parallel ruled out that the purification strategy isolates any endogenously present pyroglutamylating activity.
Pyroglutamylation was measured by conversion of glutamine-4-amino-7-methylcoumarine (H-Gln-AMC, Bachem) to pyroglutamyl-AMC, which is subsequently a specific substrate for pyroglutamylaminopeptidase (pGAPase, Qiagen), releasing free AMC which can be fluorescently detected. For a typical inhibition assay, 15 μL 20 μM h-Gln-AMC (diluted from a 40 mM stock dissolved in 25 mM HEPES using 50 mM Tris-HCl pH 8.0) was pipetted into a 96-well plate on ice. Next, 7.5 μL 1 μM test compound (diluted from a 10 mM stock dissolved in DMSO using 50 mM Tris-HCl) was added. Finally, 7.5 μL, 3 ng/μL recombinant isoQC enzyme was added and the reaction mixture was incubated for 1 hour at 37° C. A 5 minute incubation at 98° C. was then performed to denature the isoQC enzyme and stop the reaction.
To detect the amount of pyroglutamyl-AMC formed, a 96-well plate was prepared with 25 μL 0.125 U/mL pGAPase enzyme diluted in 50 mM Tris-HCl pH 8.0 containing 10 mM dithiothreitol (DTT). 25 μL of the pyroglutamylation reaction mixture was transferred into the plate containing the pGAPase solutions while on ice. Once done, the plate was moved over to a Spectramax ID3 fluorescent plate-reader to monitor and record the maximum fluorescence at 380 nm excitation/450 nm emission over a period of 20 minutes while keeping the temperature at 37° C.
DMSO concentrations during the assay never exceeded 1% and activities were compared to controls containing only the same amount of DMSO and no test compound. […] Test compounds were reported as active when <40% of background corrected signal was measured as compared to DMSO controls.

The subject of assay [2] is pyroglutamylated CD47 (pE-CD47) in KBM7 cells. Kind of assay: Assay 6 - cell-based potency assay (pE-CD47 CC2C6 staining vs total CD47). To be noted: read-out: Cell Pot. Assay No. 6, 72 hours, CC2C6 signal. Here is the method:
Cells were spun for 4 minutes at 1500 rpm and washed once with PBS/0.5% BSA. Cells were spun down again and the supernatant was removed and incubated in 100 uL antibody staining solution (PBS/0.5% BSA/0.1 μg/mL DAPI (4′,6-diamidino-2-phenylindole, ThermoFisher Scientific) and a mixture of 1:500 FITC-conjugated anti-human CD47 clone 2D3, which recognizes total CD47 irrespective of its pyroglutamylation state, and 1:500 Alexa647-conjugated anti-human CD47 clone CC2C6, which specifically detects pyroglutamylated CD47) for 2 hours at 4° C. Next, the cells were spun down and washed twice with 2×150 μL PBS/0.5% BSA to remove unbound antibody. Cells were again spun down and taken up in 300 μL FACS buffer before analysis on a Celesta FACS machine (BD Biosciences).
KBM7 cells (Kotecki et al., 1999) were infected with lentivirus produced by transfecting pSCNC-LentiCRISPR-QPCTL or pSCNC-LentiCRISPR-CD47 into HEK-293T cells according to standard protocols. After 24 hours incubation, cells were selected with puromycin (Invivogen, 1 μg/mL) for 48 hours. Cells were stained for total CD47 and pE-CD47 and QPCTL k.o. cells were sorted out as negative for pE-CD47, and CD47 k.o. cells as negative for total CD47, using a FACSAria III and FACS Diva software (BD Biosciences).
In order to test compounds for their effect on pyroglutamylation in live cells, 25000 KBM7 cells per well were seeded in a 96-well U-bottom plate in 150 μl IMDM/10% FCS/1% Pen/Strep medium and a 10-point 2-fold dilution range of test compounds. After 72 hours incubation at 37° C., 5% CO2, cells were stained for total CD47 and pE-CD47 and analyzed on a BD Celesta using FACS Diva software (BD Biosciences). Cells gated for DAPI negativity were recorded and the median fluorescence intensity (MFI) of each sample was transformed to linearly scale between the MFI's of wildtype and CD47 knockout cells (in case of the 2D3 antibody) and the wildtype and QPCTL knockout cells (in case of the CC2C6 antibody). IC50's were calculated by 3 parameter logistic regression of the CC2C6 signal vs. compound concentration, where the top of the sigmoidal curve was fixed at 1, using R and the drc package (http://www.r-project.org, https://cran.r-project.org/web/packages/drc/index.html).

Assay [3] concerns the target T1, human isoQC (S53-L382). Put plainly: Assay 2 - isoQC potency, mass spectrometry-based enzymatic potency assay. As to conditions: read-out: isoQc Pot. Assay No. 2, 7.5 nM isoQC, 10 μM H-Gln-AMC. The protocol: as §2, §1

Structures are written as SMILES. pIC50: −log10 of the molar value. Where only a bound is given, the exact number is not on record here.

Consider `Cc1c2c(nn1C)C(=O)N(c1ccc3[nH]cnc3c1)C2c1ccc(Br)cc1F` (single isomer, unassigned), for which the pIC50 at recombinant human QC was 7.00 to 7.60; in assay [2], above 6.00; on human isoQC (S53-L382) [3], above 7.60. In addition, on human isoQC (S53-L382) [1], the “isoQc Inh. Assay No. 1” value is recorded as “+ ((+) > 40% isoQC inhibition at 250 nM)”.

With `Cc1c2c(nn1C)C(=O)N(c1ccc3[nH]cnc3c1)C2c1ccc(OCCC(F)F)c(F)c1F` (single isomer, unassigned), the pIC50 was above 7.60 on recombinant human QC, above 6.00 in assay [2] and above 7.60 at human isoQC (S53-L382) [3]. Also, at human isoQC (S53-L382) [1], the “isoQc Inh. Assay No. 1” value is on record as “+ ((+) > 40% isoQC inhibition at 250 nM)”.

Values taken from patent publication US20230077723A1, “N-SUBSTITUTED-3,4-(FUSED 5-RING)-5-PHENYL-PYRROLIDINE-2-ONE COMPOUNDS AS INHIBITORS OF ISOQC AND/OR QC ENZYME” (Scenic Immunology B.V., priority 2019, published 2023).
